From patent US20240350450A1, “COMPOSITION COMPRISING a-KE[…] (a-KG) AND 5-HYDROXYMETHYL-2-FURFURAL (5-HMF) TO IMPROVE HEMOGLOBIN-MEDIATED OXYGEN SUPPLY” (CYL GmbH, priority 2021, published 2024)

Chains of the proteins cited; added tags and fusions are not shown. Residues count along the entry.
UniProt P68871, 2-147 limits assumed: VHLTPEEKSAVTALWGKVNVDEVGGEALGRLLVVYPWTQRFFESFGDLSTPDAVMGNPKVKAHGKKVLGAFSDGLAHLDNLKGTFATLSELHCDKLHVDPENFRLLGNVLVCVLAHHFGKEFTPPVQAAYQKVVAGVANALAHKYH
UniProt P69905, 2-142 limits assumed: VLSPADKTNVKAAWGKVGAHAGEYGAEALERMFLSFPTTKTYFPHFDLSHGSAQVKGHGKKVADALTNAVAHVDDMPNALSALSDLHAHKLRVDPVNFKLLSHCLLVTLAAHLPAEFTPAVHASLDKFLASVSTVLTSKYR

Biological target: T1, hemoglobin (Hb) (Homo sapiens, UniProt P68871+P69905)
T1 construct: Venous blood was collected from 20 healthy subjects (ten women, ten men) aged 18 to 40 years; from tissue; host or cells: human venous whole blood (erythrocytes) of healthy volunteers
Experiment: in vitro high-throughput determination of oxygen dissociation curves (ODC) in whole blood samples
Format: biochemical
Conditions: low, medium and high dosage, 37° C., 40 mmHg PCO2
Procedure: Venous blood was collected from 20 healthy subjects (ten women, ten men) aged 18 to 40 years. […] Immediately after blood collection, blood gas analysis was performed (ABL800 flex, radiometer) and samples were stored on ice and processed within eight hours.
The recommended maximum daily dose of 5-HMF of Sanopal® (Cyl, Austria) is 720 mg. Assuming its total distribution in the blood volume of a 70 kg person to be approximately 5000 ml (16), the low dose of 5-HMF was defined as 0.14 mg/ml ([…]).
To ensure stable conditions during the ODC measurement, the measurement setup was set up in an environmentally controlled, closed device (EC box). This box is temperature-controlled (37° C.) and contains the experimental setup consisting of a humidifier, a cover for the microplate reader, tubes and valves. A modified 96-well plate was used (a special coating process ensures a thin, yet adherent layer of red blood cells for optimal fluorescence measurement), which enabled a constant gas flow across all wells in a meandering gas flow channel. […]
The blood samples were placed in the individual wells using a special stamping technique so that a film consisting of a few cell layers could form. […] An oxygen ramp of around 20% by volume to 0% by volume was formed, so that a dissociation curve can be measured. […]

Q: `O=C(O)CCC(=O)C(=O)O` [α-KG, α-ketoglutaric acid] was tested. Which “P50 / Hb oxygen binding affinity (Hb-O2 affinity)” value did it give?
A: increased Hb-O2 affinity, but to a lesser extent
